This series is described as follows: Phase 1 open-label crossover drug-drug interaction study: steady-state plasma pharmacokinetics of omeprazole without and with ethyl eicosapentaenoate. Particulars: omeprazole alone 40 mg daily, day 7; median (min, max). The protocol: Eligibility assessments and clinical laboratory testing were performed within a 28-day screening period. All eligible subjects received the same treatment. […] On days 12-29, subjects received oral doses of 4 g ethyl eicosapentaenoate (2 liquid-filled 1 g gelatin capsules, twice daily), with or following the morning and evening meals. Treatments were self-administered when subjects were away from the study site, and by study personnel during scheduled visits.
Eligible subjects were healthy nonsmoking men and women between the ages of 19 and 55 years with a body mass index >18 and ≦35 kg/m^2 and in good health as determined by medical history and medical examination. Women who were pregnant, nursing, or planning a pregnancy were excluded; female subjects of childbearing potential were required to use an acceptable method of birth control. Subjects were prohibited from ingesting medications and supplements that contained EPA and/or docosahexaenoic acid (DHA), fish meals, foods fortified with EPA and/or DHA, lipid-medications and dietary supplements with known or potential lipid-altering effects including statins, niacin >200 mg/day, fibrates, ezetimibe, and bile acid sequestrants or medications or supplements that may influence the measurements of EPA concentrations in plasma until after the last PK sample collection. […]

With `COc1ccc2[nH]c([S+]([O-])Cc3ncc(C)c(OC)c3C)nc2c1` (stereo not shown) [Omeprazole, omeprazole], the Tmax of omeprazole is on record as 1.5 (1.0, 6.0) h.

Source of the values: patent US20150073050A1, “CO-ADMINISTRATION OF OMEPRAZOLE AND EICOSAPENTAENOIC ACID OR A DERIVATIVE THEREOF” (Amarin Pharmaceuticals Ireland Limited, priority 2013, published 2015).
